Measured values: ChEMBL document CHEMBL6121047, “Design, Synthesis, and Evaluation of Selective PDE4 Inhibitors for the Therapy of Pulmonary Injury” (J Med Chem, 2025)

Key:
RAW264.7 [1] = assay: Anti-inflammatory activity in LPS-induced mouse RAW264.7 cells assessed as inhibition of TNF-alpha secretion preincubated with compound for 1 hr followed by LPS addition and measured after 24 hrs by ELISA; type: functional, cell-based; conditions: dose 0.1-100 µM, time 25.0 hrs
RAW264.7 [2] = assay: Anti-inflammatory activity in LPS-induced mouse RAW264.7 cells assessed as inhibition of IL-6 secretion preincubated with compound for 1 hr followed by LPS addition and measured after 24 hrs by ELISA; type: functional, cell-based; conditions: dose 0.1-100 µM, time 25.0 hrs

For `O=C(Nc1nccs1)c1cccc2[nH]c(-c3ccc(OC(F)F)c(OCC4CC4)c3)nc12`, the Activity (RAW264.7 [1]) was “Dose-dependent-effect” and the Activity (RAW264.7 [2]) was “Dose-dependent-effect”.
